Antibody variant affinities, Ab-14 light chain, assay 1

Target peptide (SARS-CoV-2 spike, HR2 region): PDVDLGDISGINAS

Ab-14 is the parent antibody, in scFv form: VH, then the linker GGGGSGGGGSGGGGS, then VL. The heavy chain is unchanged in all variants.
VH: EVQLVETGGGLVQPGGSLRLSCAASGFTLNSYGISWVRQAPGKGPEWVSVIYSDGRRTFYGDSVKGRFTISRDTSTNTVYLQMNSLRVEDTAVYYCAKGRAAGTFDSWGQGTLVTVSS
VL: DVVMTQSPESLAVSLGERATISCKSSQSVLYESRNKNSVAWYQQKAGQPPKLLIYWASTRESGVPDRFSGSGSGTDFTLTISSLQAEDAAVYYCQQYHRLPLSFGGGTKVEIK

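Variants in AAYL50 differ from the parent at up to three CDR positions; double and triple changes were sampled at random. Affinity was read by AlphaSeq, a pooled yeast mating assay with surface-displayed partners. The frequency of each diploid, read from paired DNA barcodes, reflects how well the two displayed proteins bind. Read counts were normalised to the haploid input and turned into Kd by a linear fit to BCL2-family pairs of known affinity, for each replicate. Each pool was mated in three replicate cultures.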

Each variant is given by its three light chain CDRs, as the data file delimits them; those of the parent are KSSQSVLYESRNKNSVA, WASTRES, QQYHRLPLS. Every variant below is changed at Q27 of the VL (sequential numbering). The Kd shown is the geometric mean over detected replicates; a lower Kd is a better binder. Where no diploid with the target was found in any replicate, the entry reads "nd": below detection, most likely a poor binder, though not proof of it. Background: pairings of library AAYL50 with three empty control strains gave a value in 18% of cases (median 15 µM, 5th percentile 970 nM). Values in that range, when seen in few replicates, are hard to tell from nonspecific mating. For each scFv, signals with the empty controls are counted beside the result.

For KSRMSVLYESRNKNSVA | WASNRES | QQYHRLPLS, the assay gave 580 nM (2 of 3 replicates; controls 1 of 9). The variant KSSSSVLYESRNKNSVA | WASTGES | PQYHRLPLS showed 610 nM (1 of 3 replicates; controls 0 of 9). For KSSWSVLYESRNKNSVA | WASTRES | QQYHRLPLI, the assay gave nd (0 of 3 replicates; controls 0 of 9). The variant KSSVSVLYESRNKNSVA | WASTEES | QQYHRLPLS showed nd (0 of 3 replicates; controls 0 of 9). The variant KSSASVLYESRNKNSVA | QASTRES | QGYHRLPLS gave 1.3 nM (3 of 3 replicates; controls 2 of 9).

For KSSISVLHESRNKNSVA | WASTRES | QQAHRLPLS, the assay gave 3.6 nM (3 of 3 replicates; controls 0 of 9). For KSSLSVFYESRNKNSVA | WASYRES | QQYHRLPLS, the assay gave 36 nM (3 of 3 replicates; controls 3 of 9). The variant KRSHSFLYESRNKNSVA | WASTRES | QQYHRLPLS gave 170 nM (3 of 3 replicates; controls 2 of 9). For KSSCSVLYESQNKNSVA | WASTRES | QQYHRLPLS, the assay gave 11 nM (3 of 3 replicates; controls 4 of 9). The variant KSVASVLYESRNKNSVA | WAITRES | QQYHRLPLS showed 4.0 µM (2 of 3 replicates; controls 0 of 9).

The variant KSTMSVLYESRNKNSVA | WASTRES | QQYNRLPLS showed 7.3 nM (3 of 3 replicates; controls 0 of 9). For KSSVSVLYESRNKNSVA | WASTRES | HQYHRRPLS, the assay gave 20 µM (2 of 3 replicates; controls 3 of 9). The variant KSSHTVLYESRNKNSVA | WASTREH | QQYHRLPLS showed 51 nM (3 of 3 replicates; controls 0 of 9). The variant KSSASVLYESRNKNSVT | WASTRAS | QQYHRLPLS gave nd (0 of 3 replicates; controls 0 of 9). For KSSYSVLYESRNKNSVA | WASTRES | MQEHRLPLS, the assay gave nd (0 of 3 replicates; controls 0 of 9).

For KSSTSVLYESRQKNSVA | WASTRES | QFYHRLPLS, the assay gave 250 nM (3 of 3 replicates; controls 3 of 9). The variant KSSMSVLDESSNKNSVA | WASTRES | QQYHRLPLS showed 860 pM (3 of 3 replicates; controls 3 of 9). With KLSCSVLYESRNKNSVA | WASTRED | QQYHRLPLS the result was 1.8 nM (3 of 3 replicates; controls 3 of 9). For KSSESVLYESRNKNSVA | WASTRDS | QQYHHLPLS, the assay gave 10 nM (3 of 3 replicates; controls 1 of 9). The variant KSSMSVLYESRNKNSVA | WASTRES | QQHHRLLLS gave 290 nM (3 of 3 replicates; controls 1 of 9).

With KSSNSVLYESRNKNSVA | WASTRES | QQYHWLPLS the result was 18 nM (3 of 3 replicates; controls 0 of 9). The variant KSSHSVLYESRNKNSVA | YASTRES | LQYHRLPLS showed nd (0 of 3 replicates; controls 0 of 9). The variant KSSESVLYESRNKMSVA | WYSTRES | QQYHRLPLS gave 3.6 µM (2 of 3 replicates; controls 2 of 9). For KSSMSVLYNSRNKNSVA | WKSTRES | QQYHRLPLS, the assay gave 6.9 µM (1 of 3 replicates; controls 2 of 9). For KSMPSVLYESRNKNSVA | WASTRES | QAYHRLPLS, the assay gave 1.4 µM (2 of 3 replicates; controls 0 of 9).

With KSSTSVLYNSRNKNSVA | WASTRFS | QQYHRLPLS the result was 150 nM (3 of 3 replicates; controls 1 of 9). The variant KSSISNLYEERNKNSVA | WASTRES | QQYHRLPLS gave 1.8 nM (3 of 3 replicates; controls 4 of 9). The variant KSSKSVLYESRNKNVVA | WASTRES | FQYHRLPLS gave nd (0 of 3 replicates; controls 0 of 9). With KSSCSVLYESRNKNSVA | WASTRES | QCYHRRPLS the result was 650 µM (2 of 3 replicates; controls 5 of 9). With KSSKSDLLESRNKNSVA | WASTRES | QQYHRLPLS the result was 3.6 nM (3 of 3 replicates; controls 4 of 9).

The variant KSSFSVLYESRNKDSVA | WASTRES | QQYHRLPRS gave 20 µM (2 of 3 replicates; controls 3 of 9). The variant KSSESVLYEHRNKNSVA | QASTRES | QQYHRLPLS gave 4.2 nM (3 of 3 replicates; controls 0 of 9). The variant KSSKHVLYESLNKNSVA | WASTRES | QQYHRLPLS showed 6.3 nM (3 of 3 replicates; controls 1 of 9). For KSSCHVLYESRNKNSVA | WASTRES | QQYHRLPSS, the assay gave nd (0 of 3 replicates; controls 0 of 9). With KSSSSVLYESRNKNSVA | WASTREK | QQYLRLPLS the result was 62 nM (3 of 3 replicates; controls 3 of 9).

The variant KSSHSVLYESRNKNSTA | WASIRES | QQYHRLPLS showed nd (0 of 3 replicates; controls 1 of 9). For KSSVSVLYESRNKNSVA | WASTRES | QQYQRLPLE, the assay gave 16 nM (3 of 3 replicates; controls 4 of 9). For KSSHSVMYESRNKNSVA | WASTRES | QQYHRLPLS, the assay gave 440 nM (3 of 3 replicates; controls 0 of 9). The variant KSSPSVLYESRNKCSVA | WASTRES | QQYHRGPLS gave 730 nM (2 of 3 replicates; controls 0 of 9). The variant KSSKSVLYESRNKNSVA | WASTRES | QQYHRSPLS gave 970 nM (3 of 3 replicates; controls 2 of 9).

The variant KSSCSVLIEERNKNSVA | WASTRES | QQYHRLPLS showed 48 nM (3 of 3 replicates; controls 3 of 9). For KSSGSVLYESRNKWSVA | WASTRES | QQRHRLPLS, the assay gave 12 µM (1 of 3 replicates; controls 0 of 9). The variant YSSDSVLYESRNKNSVA | WASTRES | QQYHRLPLS gave 27 µM (1 of 3 replicates; controls 2 of 9). The variant KSSNSVLYASRNKNSVA | WASTRES | QQYHRLPLS showed 2.4 µM (1 of 3 replicates; controls 0 of 9). With KRSNSVLYESRNKNSVA | WASTWES | QQYHRLPLS the result was nd (0 of 3 replicates; controls 0 of 9).

The variant GSSKSVLYESRNKNSVA | WASTRES | WQYHRLPLS gave 76 nM (1 of 3 replicates; controls 0 of 9). For KSSCSVLYESRNYNSVA | WAETRES | QQYHRLPLS, the assay gave nd (0 of 3 replicates; controls 0 of 9). With KSSYKVLYESRNKNSVA | WRSTRES | QQYHRLPLS the result was 100 µM (2 of 3 replicates; controls 4 of 9). The variant KSSYSVLYESRNKNSVA | WASTRES | QQYHRLPTS showed 190 µM (1 of 3 replicates; controls 1 of 9). For KSSRSVLYESRNKNSVA | WASTRES | QQYHRFPLS, the assay gave 130 µM (1 of 3 replicates; controls 1 of 9).

With KSSISVHYESRNKNSVA | WASTRES | QHYHRLPLS the result was 5.5 nM (3 of 3 replicates; controls 0 of 9). For KSSISVLPESRNKNSVA | WASVRES | QQYHRLPLS, the assay gave 1.7 nM (3 of 3 replicates; controls 0 of 9).

A selection of 5 entries from above:

| CDR-L1 | CDR-L2 | CDR-L3 | Kd | replicates with signal | signal with controls |
|---|---|---|---|---|---|
| KSSVSVLYESRNKNSVA | WASTRES | HQYHRRPLS | 20 µM | 2/3 | 3/9 |
| KSSKHVLYESLNKNSVA | WASTRES | QQYHRLPLS | 6.3 nM | 3/3 | 1/9 |
| KSSWSVLYESRNKNSVA | WASTRES | QQYHRLPLI | nd | 0/3 | 0/9 |
| KSSMSVLDESSNKNSVA | WASTRES | QQYHRLPLS | 860 pM | 3/3 | 3/9 |
| KSSHSVLYESRNKNSTA | WASIRES | QQYHRLPLS | nd | 0/3 | 1/9 |

Values reported by Engelhart et al. 2022, doi:10.1038/s41597-022-01779-4 (FLAb copy).